Values of other authors, collected in US7196201B2 (dated 2007).

Sequences of proteins named here, by UniProt entry; tags and fusion partners are left off. A change or cut given only in a name is not applied to a line headed by its entry.
UniProt P14740: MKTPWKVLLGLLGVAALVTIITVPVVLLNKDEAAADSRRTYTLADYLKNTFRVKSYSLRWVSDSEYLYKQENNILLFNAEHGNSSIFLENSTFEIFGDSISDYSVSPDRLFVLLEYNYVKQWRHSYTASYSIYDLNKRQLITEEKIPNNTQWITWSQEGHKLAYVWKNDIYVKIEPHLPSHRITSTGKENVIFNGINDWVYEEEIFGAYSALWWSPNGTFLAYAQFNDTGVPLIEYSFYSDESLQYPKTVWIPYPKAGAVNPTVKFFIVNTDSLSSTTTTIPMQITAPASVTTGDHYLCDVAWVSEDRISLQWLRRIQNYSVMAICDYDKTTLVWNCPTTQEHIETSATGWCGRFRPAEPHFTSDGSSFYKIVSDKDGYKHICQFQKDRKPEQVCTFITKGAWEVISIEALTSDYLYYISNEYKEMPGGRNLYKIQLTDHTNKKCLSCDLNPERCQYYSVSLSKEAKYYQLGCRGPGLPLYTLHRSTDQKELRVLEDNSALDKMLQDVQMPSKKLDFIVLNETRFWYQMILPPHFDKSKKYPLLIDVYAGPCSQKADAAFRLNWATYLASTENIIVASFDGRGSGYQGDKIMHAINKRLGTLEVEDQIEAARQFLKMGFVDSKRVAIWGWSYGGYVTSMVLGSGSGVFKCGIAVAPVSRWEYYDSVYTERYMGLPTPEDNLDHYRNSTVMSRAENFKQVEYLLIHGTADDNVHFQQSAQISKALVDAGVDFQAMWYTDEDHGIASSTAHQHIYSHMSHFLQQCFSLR

Biological target: DPP-IV (Rattus norvegicus, UniProt P14740)
Conditions: obese Zucker rats

Substance: NVP-DPP728
- oral glucose tolerance: improves oral glucose tolerance
- plasma GLP-1 (2–36 amide) concentrations: increases plasma GLP-1 (2–36 amide) concentrations
